# Screens deposited in PubChem by National Center for Advancing Translational Sciences (NCATS).
# Only some compounds are listed: those with a hit (about 3.7% of all), similar ones and a draw of the others.
# A549 tox = kills or reduces viability of A549 cells in Nrf2 counter-screen; A549 ARE-Fluc cells, CellTiter-Fluor viability, 18-24 h; Potency, µM (titrated, usually from 46 µM), for inactives: at the top dose activity change, negative = cytotoxicity, most hits filed as inhibitors; 0.16% of 390,000 active; AID 504648; also: potency is read from the fitted curve at half-maximal effect; % is scaled to controls: 0 for no effect and ±100 for the full control effect
#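 A549 ARE-Fluc cells in 5% FBS OPTI-MEM, 5000 cells/well, rested 2 h then exposed to compounds in concentration-response for 18-24 h at 37 °C. Viability by CellTiter-Fluor fluorescence (Ex 405/Em 525) after 30 min; luciferase luminescence (BugLite, 15 min, RT) read afterwards.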
# ClpP mod = qHTS Assay for Activators of ClpP; AID 651965, 2013; Potency, µM (doses to about 57.5 µM), inactives show at the highest dose activity change, negative = active; ATP-dependent Clp protease proteolytic subunit (Bacillus subtilis (strain 168)), P80244; 1.9% of 340,000 active; purified B. subtilis ClpP, FRET peptide cleavage, 20 min; active = well fitted falling curve with a large enough effect; inconclusive = small, poorly fitted or top-dose-only effect; inactive = no such curve, though single readings can be large or run the other way; also: potency is read from the fitted curve at half-maximal effect; the source files actives as falling curves though it sought activators and does not explain the sign; nearly all actives have a fitted effect of over 65% in size
#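 ClpP 10 microg/mL final, pH 8 Tris/KCl buffer with BSA, glycerol, Tween-20; compound pinned in; FRET-FV substrate; RT 20 min; Ex320/Em430; ΔFRET vs ADEP 5.8 microM, DMSO, no enzyme.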
# miR-21 reporter = raises the signal of a miR-21 reporter. Potency, µM (highest dose often 38.3 µM), without a hit: top-dose reporter change, positive = more light. 340,000 tested, under 10 active. HeLa miR-21 FLuc reporter, luciferase, 48 h; active = well fitted rising curve with a large enough effect; inconclusive = small, poorly fitted or top-dose-only effect; inactive = no such curve, though single readings can be large or run the other way;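 further: % of control where 0% means no effect; miR-21 action dims this reporter so a rising signal means less miR-21 action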
#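 HeLa cells stably expressing CMV-driven firefly luciferase with a downstream miR-21 binding sequence, endogenously expressing miR-21, were treated with titrations (up to about 40uM final) for 48 hours at 37 degree Celsius. Luciferase luminescence was read after lysis.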
# IL-2 act = activates IL-2 in a cell-based reporter assay; 0.065% of 360,000 active; AID 652025; IL-2 activation reporter assay, cell-based qHTS; stimulated with anti-CD3/CD4/CD28 beads; in transgenic mouse T cells; activation, % (series mostly up to about 46 µM); in the data active = activation above about 50%; inconclusive = mostly about 30% to 49%; also: 0% is about no effect
#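 Screening format: compound pinned onto unstimulated transgenic mouse T cells, 60 min incubation, then anti-CD3/anti-CD4/anti-CD28 bead stimulation for 18 hours at 37 degrees C, followed by EGFP and DsRed detection.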
# Nrf2 inh = blocks Nrf2 signaling. A549 ARE-Fluc reporter, luciferase luminescence, 18-24 h. Potency, µM (top dose mostly 46 µM), without a hit: at the top dose activity change, negative = inhibition, most hits filed as inhibitors. 2.1% of 360,000 active. AID 504444; also: potency is read from the fitted curve at half-maximal effect; % is scaled to controls: 0 for no effect and ±100 for the full control effect; nearly all actives have a fitted effect of over 60% in size
#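 Quantitative HTS in A549 cells stably bearing an antioxidant response element-firefly luciferase construct. Inhibition of Nrf2-driven transcription was scored by luminescence after 18-24 h of compound exposure at 37 °C.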
# Nrf2 activator = activates Nrf2 signaling | Potency, µM (top dose mostly 46.1 µM), for inactives: top-dose activation, hits mostly activators | AREc32 ARE-luciferase reporter (MCF7-derived line), luminescence, 24 h | AID 624171 | 0.31% of 410,000 active; also: potency is read from the fitted curve at half-maximal effect; % of control where 0% means no effect; nearly all actives have a fitted effect of over 65% in size
#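 Cells of the AREc32 ARE-luciferase line are plated in OPTI-MEM containing 5% FBS and left overnight at 37 deg C. Compounds are pinned in, incubation continues 24 hr, and firefly luciferase signal is then measured.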
# The depositor's hits bear a star; ? = inconclusive; . = not tested or not shown; [ ] = dose if it differs, or a comment. Unless noted, calls follow the shape of the dose curve; as a rule, active = well fitted curve in the direction sought with a large enough effect; inconclusive = small, poorly fitted or top-dose-only effect, or another doubt; inactive = no such curve, though single readings can be large; an effect the other way counts as inactive or inconclusive.
(1) Cc1nc2cccnc2n1-c1cccc(C(=O)N2CCN(c3cccc(Cl)c3)CC2)c1
(2) Cc1cc2c(s1)c1cnn(Cc3cccc(Cl)c3)c(=O)c1n2C
(3) CCn1nc(-c2ccc(C)cc2)nc2c(=O)n(C)c(=O)nc1-2
(4) Cc1cc2oc(=O)cc(Cn3ncc(Cl)c(Cl)c3=O)c2cc1Cl
(5) Oc1c(CN2CCCCC2)cc(COCc2ccccc2)c2cccnc12
(6) CN(C)C1CCN(Cc2cc(COCc3ccccc3)c3cccnc3c2O)C1 (centres undefined)
(7) CCN(Cc1nc(-c2ccc(OC)cc2)oc1C)S(=O)(=O)c1ccc(C)cc1
(8) CC(C)C(=O)NC(c1cccs1)c1cc([N+](=O)[O-])c2cccnc2c1O (centres undefined)

compound no.	1	2	3	4	5	6	7	8
ClpP mod	1%	.	-3%	.	2%	.	-17%	-1%
Nrf2 activator	-3%	.	.	4µM*	8%	4%	8%	-1%
Nrf2 inh	?	?	?	?	?	21µM*	.	21µM*
miR-21 reporter	?	.	.	-1%	?	.	14%	1%
IL-2 act	.	.	.	-1	0	0	.	0
A549 tox	-10%	-4%	?	?	?	-12%	0%	?

(9) CCC(=O)NC(c1ccc(C)cc1)c1cc(Cl)c2cccnc2c1O (centres undefined)
(10) Cc1ccc(C(NC(=O)C(C)C)c2cc([N+](=O)[O-])c3cccnc3c2O)cc1 (centres undefined)
(11) CCC1(C)Cc2ccccc2-c2nc(NCCCO)n(-c3ccccc3)c(=O)c21 (centres undefined)
(12) Cn1c(NCCCO)nc2c(c1=O)C1(CCCCC1)Cc1ccccc1-2
(13) O=c1[nH]c(NCCO)nc2c1C1(CCCC1)Cc1ccccc1-2
(14) CCC1(C)Cc2ccccc2-c2nc3n(c(=O)c21)CCS3 (centres undefined)
(15) CCC1(C)Cc2ccccc2-c2nc3n(c(=O)c21)CC(C(=O)O)S3 (centres undefined)
(16) O=C(O)c1ccccc1Nc1ccc([N+](=O)[O-])cc1C(=O)O

compound no.	9	10	11	12	13	14	15	16
ClpP mod	.	1%	3.5µM*	28µM*	32%	?	25µM*	.
Nrf2 activator	3%	0%	4%	1%	0%	0%	0%	0%
Nrf2 inh	?	18µM*	?	.	-14%	0%	9%	7%
miR-21 reporter	.	5%	14%	-2%	4%	-2%	-6%	-1%
IL-2 act	0	-2	-4	1	0	2	2	-2
A549 tox	-16%	?	-15%	4%	-8%	-4%	4%	-24%

(17) COc1cccc(Nc2cc(N3CCOCC3)c3nonc3c2[N+](=O)[O-])c1
(18) COc1cccc(Nc2ccc([N+](=O)[O-])c3nonc23)c1
(19) O=C(O)c1ccccc1Nc1ccc([N+](=O)[O-])c2nonc12
(20) Cc1ccc(N2CC(NC(=O)c3cc4ccccc4o3)CC2=O)cc1 (centres undefined)
(21) COc1ccc(S(=O)(=O)c2cn(C)c3cc(N4CCOCC4)c(F)cc3c2=O)cc1
(22) O=S(=O)(c1ccc(Br)cc1)c1nc(-c2ccco2)oc1SCc1ccccc1F
(23) Cc1ccc(Nc2c([N+](=O)[O-])c(=O)oc3ccccc23)cc1
(24) COc1ccc(-c2nc3ccccc3n2Cc2ccccc2)cc1COc1ccc(NC(C)=O)cc1

compound no.	17	18	19	20	21	22	23	24
ClpP mod	-1%	.	.	1%	-22%	-8%	-1%	.
Nrf2 activator	0%	7%[9.22 µM]	0%	5%	-1%	3%	?	.
Nrf2 inh	-12%	?	-21%	.	0%	-10%[9.27 µM]	18µM*	?
miR-21 reporter	0%	0%	-5%	-2%	3%	3%	24%	.
IL-2 act	9	-3	3	.	.	.	-3	.
A549 tox	-17%	18µM*	18µM*	18%	1%	0%	?	-8%

(25) Cc1cccc(S(=O)(=O)NCCc2cn3ccccc3n2)c1
(26) O=S(=O)(NCCc1cn2ccccc2n1)c1ccc(-c2ccccc2)cc1
(27) CCOc1ccc(S(=O)(=O)NCCc2cn3ccccc3n2)cc1
(28) CCOc1ccc(S(=O)(=O)NCCc2ccccn2)cc1
(29) CCOc1ccc(CNc2cc(C)nc3nc(-c4cccc(C)c4)nn23)cc1OC
(30) CC(C)(C)c1ccc2c(c1)OC(C(=O)N/N=C\c1ccc[nH]1)CO2 (centres undefined)
(31) CC(C)(C)c1ccc2c(c1)OC(C(=O)N/N=C\c1ccncc1)CO2 (centres undefined)
(32) COc1ccc2oc(-c3ccccc3)c(C(N)=O)c2c1

compound no.	25	26	27	28	29	30	31	32
ClpP mod	-4%	-5%	22µM*	2%	-2%	-3%	.	32µM*
Nrf2 activator	0%	0%	1%	0%	3%	4%	3%	1%
Nrf2 inh	-9%	21µM*	?	-5%	.	5.8µM*	-20%	5%
miR-21 reporter	-5%	5%	-7%	.	-14%	28%	5%	-38%
IL-2 act	2	0	-3	-5	.	-3	-3	-2
A549 tox	-1%	-9%	-9%	7%	0%	8.2µM*	-1%	2%

# Exported with values under each structure: 4 of the compounds above
# Below each compound – ClpP mod | Nrf2 activator | Nrf2 inh | miR-21 reporter | IL-2 act | A549 tox
25	Cc1cccc(S(=O)(=O)NCCc2cn3ccccc3n2)c1
→ -4% | 0% | -9% | -5% | 2 | -1%
26	O=S(=O)(NCCc1cn2ccccc2n1)c1ccc(-c2ccccc2)cc1
→ -5% | 0% | 21µM* | 5% | 0 | -9%
27	CCOc1ccc(S(=O)(=O)NCCc2cn3ccccc3n2)cc1
→ 22µM* | 1% | ? | -7% | -3 | -9%
28	CCOc1ccc(S(=O)(=O)NCCc2ccccn2)cc1
→ 2% | 0% | -5% | . | -5 | 7%

# (further entries)
(33) CN(C)C(=O)c1c(-c2ccccc2)oc2ccc(O)cc12
(34) COc1ccc(-c2oc3ccc(-c4cc(OC)c(OC)c(OC)c4)cc3c2-c2ccc(OC)nc2)cc1
(35) COc1ccc(C(=O)c2c(-c3ccc(OC)cc3)oc3ccc(-c4ccc(OC)nc4)cc23)cc1
(36) COc1ccc(-c2noc(CC(=O)Nc3ccc(Br)cc3C)n2)cc1
(37) CC(C)Sc1nc(N2CCOCC2)c2c3c(sc2n1)COC(C)(C)C3
(38) O=C(Cc1ccc(F)cc1)Nc1nnc2n1CCS2
(39) O=S(=O)(c1ccc2c(c1)OCCO2)N1CCN(S(=O)(=O)c2cccc(Cl)c2F)CC1
(40) O=C(CCn1cnnn1)N1CCCC(Nc2ccc(F)c(F)c2)C1 (centres undefined)

compound no.	33	34	35	36	37	38	39	40
ClpP mod	20µM*	4%	16µM*	0%	-1%	-3%	.	32µM*
Nrf2 activator	0%	0%	-1%	1%	0%	0%	.	0%
Nrf2 inh	-22%	-10%	-8%	27%	15µM*	.	13%	17%
miR-21 reporter	-9%	1%	.	-5%	-3%	-3%	.	-3%
IL-2 act	-1	-2	0	.	1	.	.	0
A549 tox	-6%	11%	5%	10%	.	0%	3%	10%

(41) O=C1CCCN1CCC(=O)N1CCCC(Nc2ccc(F)c(F)c2)C1 (centres undefined)
(42) Nc1ccc2c(c1)C=C/C2=C\c1ccccc1
(43) COc1cc(/C=C/c2[nH]c(=O)[nH]c(=O)c2[N+](=O)[O-])cc([N+](=O)[O-])c1O
(44) CCOC(=O)c1ccccc1NC(=O)Cn1c(=O)n(CCC(=O)N2CCc3ccccc3C2)c(=O)c2ccccc21

compound no.	41	42	43	44
ClpP mod	.	-1%	-2%	4%
Nrf2 activator	3%	.	-1%	0%
Nrf2 inh	6%	.	3%	-17%
miR-21 reporter	-12%	.	1%	7%
IL-2 act	-1	.	0	.
A549 tox	5%	.	16µM*	-1%
